{
  "source": "patent US20230013419A1",
  "about": "“ANALOGUES OF 3-(5-METHYL-1,3-THIAZOL-2-YL)-N-{(1R)-1-[2-(TRIFLUORO-METHYL)PYRIMIDIN-5-YL]ETHYL}BENZAMIDE” (Bayer Aktiengesellschaft, priority 2019, published 2023)",
  "test": "High throughput aqueous solubility in phosphate buffer pH 6.5",
  "type": "physicochemical",
  "protocol": "Examples were tested for its solubility in aqueous media (pH 6.5). Examples were synthesized one or more times in accordance with the above-described protocols. When synthesized more than once, data from solubility assays represent average values or median values calculated utilizing data sets obtained from testing of one or more synthetic batch.\nThe high throughput screening method to determine aqueous drug solubility is based on Thomas Onofrey and Greg Kazan, Performance and correlation of a 96-well high throughput screening method to determine aqueous drug solubility, Millipore Corporation Application Note, 2003; Lit. No. AN1731EN00.\nThe assay was run in a 96-well plate format. Each well was filled with an individual compound.\nAll pipetting steps were performed using a robot platform.\n100 μl of a 10 mmolar solution of drug in DMSO were concentrated by vacuum centrifugation and resolved in 10 μl DMSO. 990 μl phosphate buffer pH 6.5 were added. The content of DMSO amounts to 1%. The multititer plate was put on a shaker and mixed for 24 hrs at room temperature. 150 μl of the suspension were transferred to a filtration plate. […] Filtrate and calibration plates were quantified by HPLC-MS/MS. […]\nThe areas of sample- and calibration injections were determined by using mass spectrometry software (AB SCIEX: Discovery Quant 2.1.3. and Analyst 1.6.1). […]",
  "data": [
    {"substance": "{[(3R,5R)-5-Hydroxytetrahydrofuran-3-yl]oxy}-5-(5-methyl-1,3-thiazol-2-yl)-N-{(1R)-1-[2-(trifluoromethyl)pyrimidin-5-yl]ethyl}benzamide and {[(3R,5S)-5-hydroxytetrahydrofuran-3-yl]oxy}-5-(5-methyl-1,3-thiazol-2-yl)-N-{(1R)-1-[2-(trifluoromethyl)pyrimidin-5-yl]ethyl}benzamide [Example 1]", "values": [
      {"measurement": "solubility compared to example 11 of WO2016/091776 A1", "setting": "aqueous, pH 6.5", "value": "significantly improved solubility"},
      {"measurement": "Aqueous Solubility pH 6.5", "setting": "phosphate buffer pH 6.5, 1% DMSO, 24 hrs at room temperature", "value": 46.0, "unit": "mg/L"}
    ]}
  ]
}
